Measured values published in patent US20040053896A1, “Pharmaceutically active compound” (priority 2000, published 2004).

Test: Solubility in solvents
Format: physicochemical

In the case of cholyllysltamoxifen sulphate, the Solubility in water is reported as “soluble in water”.
